The results in this text go back to patent US8822494B2 (Pfizer Inc., priority 2012, dated 2014).

Chains of the proteins cited; added tags and fusions are not shown.
UniProt P21728, whole entry: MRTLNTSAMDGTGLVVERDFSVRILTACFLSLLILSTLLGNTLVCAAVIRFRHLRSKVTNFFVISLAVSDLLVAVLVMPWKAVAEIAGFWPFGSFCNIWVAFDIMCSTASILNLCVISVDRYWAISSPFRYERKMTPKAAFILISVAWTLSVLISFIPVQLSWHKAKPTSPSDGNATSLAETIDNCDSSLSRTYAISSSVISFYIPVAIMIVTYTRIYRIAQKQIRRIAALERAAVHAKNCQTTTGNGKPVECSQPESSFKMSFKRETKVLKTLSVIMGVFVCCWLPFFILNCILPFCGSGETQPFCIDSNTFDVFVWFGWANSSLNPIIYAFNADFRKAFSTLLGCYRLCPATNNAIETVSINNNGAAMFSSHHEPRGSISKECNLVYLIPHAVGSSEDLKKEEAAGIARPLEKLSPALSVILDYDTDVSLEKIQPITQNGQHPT

Test [1] deals with T1, Human D1 (Homo sapiens (Human), UniProt P21728). Nature of the test: D1 cAMP HTRF Assay. It counts as cell-based. As to conditions: HEK293T/hD1#1 stable cell line, 30 min at room temperature; footnote a = geometric mean of ≧7 determinations. An excerpt:
The D1 cAMP (Cyclic Adenosine Monophosphate) HTRF (Homogeneous Time-Resolved Fluorescence) Assay used and described herein is a competitive immunoassay between native cAMP produced by cells and cAMP labeled with XL-665. This assay was used to determine the ability of a test compound to agonize (including partially agonize) D1. A Mab anti-cAMP labeled Cryptate visualizes the tracer. […] The signal, therefore, is inversely proportional to the concentration of cAMP in the sample. A time-resolved and ratiometric measurement (em 665 nm/em 620 nm) minimizes the interference with medium. cAMP HTRF assays are commercially available, for example, from Cisbio Bioassays, IBA group.
The cAMP Dynamic kit was obtained from Cisbio International (Cisbio 62AM4PEJ). […] An EnVision (PerkinElmer) reader was used to read HTRF. […]
Frozen cells were quickly thawed, re-suspended in 50 mL warm media and allowed to sit for 5 min prior to centrifugation (1000 rpm) at room temperature. […] The assay plate was read on an EnVision plate reader using Cisbio recommended settings. […]
Data analysis was done using computer software. Percent effects were calculated from the compound controls. Ratio EC50 was determined using the raw ratio data from the EnVision reader. The cAMP standard curve was used in an analysis program to determine cAMP concentrations from raw ratio data. cAMP EC50 was determined using the calculated cAMP data.
In general terms: In TR-FRET formats the signal depends on donor and acceptor labels being close together.

Test [2] addresses T1, Human D1. Nature of the test: Human D1 Receptor Binding Assay ([3H]-SCH23390 competition). As to conditions: read-out: Human D1 Receptor Binding, Ki (μM); Geometric mean of 2-3 determinations; over-expressing LTK human cell lines, 0.5 nM [3H]-SCH23390, 30 min at 37° C.; footnote b = single determination, c = geometric mean of ≧4 determinations. The procedure:
D1 binding assays were performed using over-expressing LTK human cell lines. […] These ligand and tissue concentrations were used in time course studies to determine linearity and equilibrium conditions for binding. Binding was at equilibrium with the specified amount of tissue in 30 minutes at 37° C. […] The pellet was resuspended in assay buffer [50 mM Tris (pH 7.4@ RT) containing 4 mM MgSO4 and 0.5 mM EDTA]. […] Non-specific binding was determined by radioligand binding in the presence of a saturating concentration of (+)-Butaclamol (10 μM), a D1 antagonist. After a 30 minute incubation period at 37° C., assay samples were rapidly filtered through Unifilter-96 GF/B PEI-coated filter plates and rinsed with 50 mM Tris buffer (pH 7.4 at 4° C.). […] Ki values were calculated according to the Cheng-Prusoff equation: […]

Each structure is given as a SMILES string.

The EC50 is the concentration needed to bring the measured effect to its halfway point. A low value points to higher potency in that assay. For orientation: Ki means a dissociation constant, usually derived from enzyme kinetics or from competition with a known ligand. Molecule `Cc1cc(Oc2nccc3[nH]ncc23)ccc1-c1c(C)nc[n+]([O-])c1C` [Example 13, 4-[4-(4,6-dimethyl-1-oxidopyrimidin-5-yl)-3-methylphenoxy]-1H-pyrazolo[4,3-c]pyridine] had a half-maximal effective concentration (EC50) in test [1] of 260 nM. Besides, the inhibition constant Ki in test [2] amounted to 0.0931 µM.
